# In patent US20250034165A1, “COMPOUND CONTAINING CYCLOALKYL OR HALOALKYL” (CHIA TAI TIANQING PHARMACEUTICAL GROUP CO., LTD., priority 2021, published 2025):
# Protein sequences, listed by entry. Tags and fused reporters are not part of them. Lines headed by an entry give the natural chain unless they say otherwise; changes in a name come on top. Chains listed by the source or under a name are the forms on record and can include a tag or linker. Residues count along the entry.
# UniProt P00533, 25-1210 limits assumed: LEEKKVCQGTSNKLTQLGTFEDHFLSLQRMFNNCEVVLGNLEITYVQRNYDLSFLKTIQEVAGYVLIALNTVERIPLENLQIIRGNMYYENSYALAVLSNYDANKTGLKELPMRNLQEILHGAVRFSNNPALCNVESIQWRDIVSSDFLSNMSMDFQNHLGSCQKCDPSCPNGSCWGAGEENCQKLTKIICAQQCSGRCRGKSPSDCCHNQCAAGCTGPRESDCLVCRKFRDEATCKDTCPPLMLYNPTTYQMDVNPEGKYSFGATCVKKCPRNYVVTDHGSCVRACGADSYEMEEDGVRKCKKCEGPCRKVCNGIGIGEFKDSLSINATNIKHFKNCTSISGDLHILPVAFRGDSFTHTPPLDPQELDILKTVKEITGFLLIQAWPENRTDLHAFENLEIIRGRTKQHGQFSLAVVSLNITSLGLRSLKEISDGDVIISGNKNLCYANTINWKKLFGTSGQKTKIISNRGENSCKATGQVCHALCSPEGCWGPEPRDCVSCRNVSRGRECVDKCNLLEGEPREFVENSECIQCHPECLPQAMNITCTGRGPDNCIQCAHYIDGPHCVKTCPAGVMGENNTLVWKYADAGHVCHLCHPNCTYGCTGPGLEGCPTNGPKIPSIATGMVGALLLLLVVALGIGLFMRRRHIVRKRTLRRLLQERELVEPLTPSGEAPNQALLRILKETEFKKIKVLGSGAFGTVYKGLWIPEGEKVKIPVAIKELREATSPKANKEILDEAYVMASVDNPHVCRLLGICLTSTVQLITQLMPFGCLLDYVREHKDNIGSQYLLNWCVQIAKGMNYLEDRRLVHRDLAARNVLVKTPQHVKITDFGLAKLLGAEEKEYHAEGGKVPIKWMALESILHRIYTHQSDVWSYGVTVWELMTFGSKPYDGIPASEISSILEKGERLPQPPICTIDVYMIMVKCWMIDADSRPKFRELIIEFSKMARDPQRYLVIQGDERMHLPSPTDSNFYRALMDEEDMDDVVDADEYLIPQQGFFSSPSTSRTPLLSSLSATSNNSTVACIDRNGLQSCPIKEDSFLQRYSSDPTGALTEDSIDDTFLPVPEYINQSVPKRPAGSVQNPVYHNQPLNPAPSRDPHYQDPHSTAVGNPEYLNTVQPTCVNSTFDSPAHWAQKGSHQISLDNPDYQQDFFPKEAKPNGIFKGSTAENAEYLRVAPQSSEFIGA
# UniProt P00533, 25-1210 T790M/C797S/L858R limits assumed: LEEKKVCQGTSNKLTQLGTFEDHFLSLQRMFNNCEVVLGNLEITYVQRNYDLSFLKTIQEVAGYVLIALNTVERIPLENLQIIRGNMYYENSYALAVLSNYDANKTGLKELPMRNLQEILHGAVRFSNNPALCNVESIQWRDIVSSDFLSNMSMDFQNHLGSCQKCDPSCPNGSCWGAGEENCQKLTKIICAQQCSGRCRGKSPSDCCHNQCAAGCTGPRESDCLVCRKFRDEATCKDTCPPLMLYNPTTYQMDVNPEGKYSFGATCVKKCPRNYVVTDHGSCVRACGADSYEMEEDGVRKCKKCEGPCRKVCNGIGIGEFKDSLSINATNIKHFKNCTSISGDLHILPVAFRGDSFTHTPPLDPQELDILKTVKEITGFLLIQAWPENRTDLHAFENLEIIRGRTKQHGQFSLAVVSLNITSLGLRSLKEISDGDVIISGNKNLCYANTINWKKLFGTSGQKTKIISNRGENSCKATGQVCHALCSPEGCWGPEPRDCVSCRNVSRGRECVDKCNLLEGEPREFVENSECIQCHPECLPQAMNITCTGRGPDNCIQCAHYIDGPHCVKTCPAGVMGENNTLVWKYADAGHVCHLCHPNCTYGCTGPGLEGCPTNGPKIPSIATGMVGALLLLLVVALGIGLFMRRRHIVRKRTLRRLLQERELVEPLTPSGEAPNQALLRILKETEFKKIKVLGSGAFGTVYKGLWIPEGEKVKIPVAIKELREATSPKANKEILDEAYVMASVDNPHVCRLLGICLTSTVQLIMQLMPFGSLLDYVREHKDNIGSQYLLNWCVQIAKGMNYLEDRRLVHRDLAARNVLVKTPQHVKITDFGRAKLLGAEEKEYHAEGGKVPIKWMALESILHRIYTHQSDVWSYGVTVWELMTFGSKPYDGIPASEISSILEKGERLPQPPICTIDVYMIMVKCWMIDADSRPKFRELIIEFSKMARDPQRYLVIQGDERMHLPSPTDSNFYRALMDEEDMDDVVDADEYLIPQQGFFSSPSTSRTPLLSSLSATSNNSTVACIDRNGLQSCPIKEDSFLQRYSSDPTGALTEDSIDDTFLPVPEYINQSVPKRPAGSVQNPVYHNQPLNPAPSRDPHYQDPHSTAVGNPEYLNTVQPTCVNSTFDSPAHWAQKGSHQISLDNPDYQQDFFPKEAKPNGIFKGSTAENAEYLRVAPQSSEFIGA
# UniProt P00533, with tags, fused parts or gaps limits assumed, stated change not applied: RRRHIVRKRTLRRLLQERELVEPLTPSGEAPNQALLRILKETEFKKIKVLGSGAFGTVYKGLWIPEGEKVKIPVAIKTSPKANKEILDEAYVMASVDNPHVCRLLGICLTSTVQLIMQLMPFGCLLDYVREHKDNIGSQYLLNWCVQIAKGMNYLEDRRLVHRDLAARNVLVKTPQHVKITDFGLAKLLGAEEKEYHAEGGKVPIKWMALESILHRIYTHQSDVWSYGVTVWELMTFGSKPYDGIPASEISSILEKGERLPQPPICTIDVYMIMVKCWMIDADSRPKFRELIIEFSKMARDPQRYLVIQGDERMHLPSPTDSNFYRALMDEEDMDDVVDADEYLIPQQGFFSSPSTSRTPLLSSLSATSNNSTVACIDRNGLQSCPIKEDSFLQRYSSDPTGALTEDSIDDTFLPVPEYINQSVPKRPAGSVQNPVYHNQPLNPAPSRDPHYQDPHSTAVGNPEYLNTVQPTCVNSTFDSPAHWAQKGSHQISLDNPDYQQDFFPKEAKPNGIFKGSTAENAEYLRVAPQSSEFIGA
# Experiments:
# [1] = molecular target: EGFR (WT) (Homo sapiens (Human), UniProt P00533); test: Inhibitory activity for EGFR (WT) kinase; conditions: read-out: EGFR(WT) (IC50); ATP 5 μM
# Method: (§1) A 50 ng/μL EGFR (WT, Carna) stock solution was diluted with a kinase buffer (50 mM HEPES, 10 mM MgCl2, 2 mM DTT, 1 mM EGTA, 0.01% Tween 20), and 6 μL of 1.67× working solution at 0.005 ng/μL (final concentration: 0.003 ng/μL) was added to each well. Different compounds dissolved in DMSO were added to the wells using a nanoliter pipettor, resulting in the final concentrations of the compounds of 100 nM to 0.0244 nM (4-fold gradient for 7 concentrations in total), and blank control wells (without enzyme) and negative control wells (with enzyme, plus vehicle DMSO) were set, 2 replicate wells for each concentration. After enzyme was reacted with the compound or vehicle for 30 min, 5×ATP at 25 μM (final concentration: 5 μM, Sigma) prepared with a kinase buffer was mixed with 5× substrate at 0.5 μM (final concentration: 0.1 μM, ULight-poly GT, PerkinElmer) at a ratio of 1:1 (v:v), and the mixture was added to each well at 4 μL/well. After being sealed with a film, the plate was incubated at room temperature for 2 h, and then 5 μL of 4×EDTA at 40 mM (final concentration: 10 mM) was added to each well. After the plate was incubated for 5 min at room temperature, 5 μL of 4× detection reagent at 8 nM (final concentration: 2 nM, Eu-anti-phospho-tyrosine antibody, PerkinElmer) was added to each well. After being incubated at room temperature for 1 h, the plate was read using a PerkinElmer Envision multi-mode microplate reader (excitation: 320 nm, emission: 665 nm), and IC50 was calculated by four-parameter fitting.
# [2] = molecular target: EGFR (d746-750 (d19)/T790M) (Homo sapiens (Human), UniProt P00533, DEL746-750/T790M); test: Inhibitory activity for EGFR (d746-750 (d19)/T790M) kinase; conditions: read-out: EGFR(d19/T790M) (IC50); ATP 5 μM
# Method: 1.3 Screening for Inhibitory Activity for EGFR (d746-750 (d19)/T790M) Kinase
# as §1, with “(d746-750/T790M,” for “(WT,”, “10” for “100”, “0.0024” for “0.0244”
# [3] = molecular target: EGFR (L858R/T790M/C797S) (Homo sapiens (Human), UniProt P00533, C797S/L858R/T790M); test: Inhibitory activity for EGFR (L858R/T790M/C797S) kinase; conditions: read-out: EGFR(L858R/T790M/C797S) (IC50); ATP 5 μM
# Method: A 50 ng/μL EGFR (L858R/T790M/C797S, BPS) stock solution was diluted with a kinase buffer (50 mM HEPES, 10 mM MgCl2, 2 mM DTT, 1 mM EGTA, 0.01% Tween 20), and 6 μL of 1.67× working solution at 0.00167 ng/μL (final concentration: 0.001 ng/μL) was added to each well. Different compounds dissolved in DMSO were added to wells using a nanoliter pipettor, resulting in the final concentrations of the compounds of 10 nM to 0.0024 nM (4-fold gradient, 7 concentrations in total), and blank control wells (without enzyme) and negative control wells (with enzyme, plus vehicle DMSO) were set, 2 replicate wells for each concentration. After enzyme was reacted with the compound or vehicle for 30 min, 5×ATP at 25 μM (final concentration: 5 μM, Sigma) prepared with a kinase buffer was mixed with 5× substrate at 0.5 μM (final concentration: 0.1 μM, ULight-poly GT, PerkinElmer) at a ratio of 1:1 (v:v), and the mixture was added to each well at 4 μL/well. After being sealed with a film, the plate was incubated at room temperature for 2 h, and then 5 μL of 4×EDTA at 40 mM (final concentration: 10 mM) was added to each well. After the plate was incubated for 5 min at room temperature, 5 μL of 4× detection reagent at 8 nM (final concentration: 2 nM, Eu-anti-phospho-tyrosine antibody, PerkinElmer) was added to each well. After being incubated at room temperature for 1 h, the plate was read using a PerkinElmer Envision multi-mode microplate reader (excitation: 320 nm, emission: 665 nm), and IC50 was calculated by four-parameter fitting.
IC50 [1],IC50 [2],IC50 [3],SMILES
0.933 nM,0.011 nM,0.018 nM,Cc1cc2cc(n1)-c1cnn(C)c1OCCC[C@@H](C1CC1)CN1C(=NC2=O)Nc2cc(NC3COC3)ccc21
> 10 nM,0.047 nM,0.28 nM,Cc1cc2cc(n1)-c1cnn(C)c1OCCC[C@@H](CC1CC1)CN1C(=NC2=O)Nc2cc(NC3COC3)ccc21
2.8 nM,0.037 nM,0.081 nM,Cc1cc2cc(n1)-c1cnn(C3CC3)c1OCCC[C@@H](C)CN1C(=NC2=O)Nc2cc(NC3COC3)ccc21

# Second part, the compound before the results:
SMILES,IC50 [1],IC50 [2],IC50 [3]
CCN(CC)CCNc1ccc2c(c1)N1C[C@H](C3CC3)CCCOc3c(cnn3C)-c3cc(cc(C)n3)C(=O)N=C1N2,1.6 nM,0.013 nM,0.021 nM
"Cc1cc2cc(n1)-c1cnn(C)c1OCCC[C@@H](C1CC1)CN1C(=NC2=O)Nc2cc(NC(C)C3COC3)ccc21 (single isomer, unassigned)",2.1 nM,0.014 nM,0.062 nM
Cc1cc2cc(n1)-c1cnn(C3CC3)c1OCCC[C@@H](C)CN1C(=NC2=O)Nc2ccc(NC3CCN(C)CC3)cc21,0.59 nM,0.019 nM,0.026 nM
CNCCNc1ccc2c(c1)N1C[C@H](C3CC3)CCCOc3c(cnn3C)-c3cc(cc(C)n3)C(=O)N=C1N2,0.64 nM,0.014 nM,0.022 nM
Cc1cc2cc(n1)-c1cnn(C)c1OCCC[C@@H](C1CC1)CN1C(=NC2=O)Nc2ccc(CN3CCN(C)CC3)cc21,2.5 nM,0.016 nM,0.031 nM
